This note sets out measurements from PubChem BioAssay AID602224 (National Center for Advancing Translational Sciences (NCATS), 2012).

This is a selection; strong and weak results do not stand in their true shares. Records with an inconclusive call do not appear. Calls of active or inactive are those of the source. The call rests on the fitted dose curve; in most records, active means well fitted inhibition curve with a large enough effect; inconclusive means small, poorly fitted or top-dose-only effect, or another doubt; inactive means no such curve, though single readings can be large or run the other way.

This test is described as follows: qHTS Assay for the Inhibitors of L3MBTL1: Hit Validationin AlphaScreen Counterscreen. Further: 0% is about no effect. The following applies: signal inhibition; at 57.1 µM (top of the series). From the text:
The histone code is comprised of many post-translational modifications that occur mainly in histone tail peptides. The identity and location of these marks are read by a variety of histone binding proteins that are emerging as important regulators of cellular differentiation and development and are increasingly being implicated in numerous disease states. Small molecule probes that disrupt the interaction between histone binding proteins and chromatin would enable a systematic chemical biology study of proteins that read the histone code and could potentially reveal new targets for drug discovery. However, no such small molecules are known. This dearth of quality molecular probes can largely be attributed to the novelty of the target class and the lack of screening assays. […]
Biotinylated hexahistidine (b-His6) (PerkinElmer, Waltham, MA) will be added to 1,536-well plates in a 3 uL dispense. […] Streptavidin-coated donor and nickel chelate acceptor AlphaScreen beads will be added (1 uL) for final concentrations of 10 ug/mL each bead and 1 nM b-His6, and plates read as described above (qHTS assay) after a 30 min incubation at room temperature in the dark
On the technique in general: qHTS replaces the single test concentration by a dilution series.

As for `CCc1nc2c(n1)c1c(non1O)c1c2no[n+]1[O-]`, the activity change, negative = inhibition was inactive: 46.6%.
